According to ChEMBL document CHEMBL1138974 (Bioorg Med Chem Lett, 2006):
Where “and” joins values, the source holds several entries; their conditions need not be identical. Identical values can stand only once.

Protein sequences, listed by entry. Tags and fused reporters are not part of them.
UniProt P35372, whole entry, looked up: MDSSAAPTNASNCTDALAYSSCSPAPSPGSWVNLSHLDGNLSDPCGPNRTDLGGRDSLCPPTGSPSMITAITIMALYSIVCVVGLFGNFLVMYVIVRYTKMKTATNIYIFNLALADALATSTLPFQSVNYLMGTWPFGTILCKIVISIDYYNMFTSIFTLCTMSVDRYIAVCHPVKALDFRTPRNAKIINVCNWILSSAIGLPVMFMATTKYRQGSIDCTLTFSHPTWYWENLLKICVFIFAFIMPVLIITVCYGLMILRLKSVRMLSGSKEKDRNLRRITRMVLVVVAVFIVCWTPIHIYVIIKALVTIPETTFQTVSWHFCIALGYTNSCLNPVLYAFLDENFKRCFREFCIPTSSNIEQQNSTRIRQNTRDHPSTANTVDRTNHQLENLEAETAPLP

Target: Mu-type opioid receptor (Homo sapiens, UniProt P35372)
Test: Displacement of [3H]naloxone from human mu opioid receptor expressed in BHK cells

O=C1NC[C@@H](c2ccccc2)C12CCN(C1CCCCC1c1ccccc1)CC2 (some centres not stated)
IC50: 3.92 µM

O=C1NCC(c2ccccc2)C12CCN(C1CCCCC1(O)c1ccc(F)cc1)CC2 (configuration not stated)
IC50: > 10 µM and 24 µM
